Tests used:
[1] = room temperature
[2] = tested on: laboratory mice; assay: DSS induced ulcerative colitis in mice, disease treatment study (Disease Activity Index); type: in vivo, mouse
Text: The mean group DAI is the determined.
Much more dramatic results were obtained when the mice were initially treated with DSS to induce colitis. Once clear symptoms of colitis were seen, DSS was replaced by drinking water, and treatment started with test and reference drugs, including vehicle control. All results are mean of 10 mice.

[3] = 0.2% w/v aqueous solution, pH around 5, room temperature

| Substance | solubility in aqueous solution [1] | solubility, times that of Cyclosporine A in water [1] | mice that died (out of 10) [2] | clear solution stable for [3] |
| --- | --- | --- | --- | --- |
| Cyclosporine A N-(L-proline)-glycine ester, hydrochloride [Cyclosporine-GP] | approximately 2000 micrograms/ml | 60 times | none died | 3 months |
| Cyclosporine A N-(L-lysine)-glycine ester, dihydrochloride trihydrate [Cyclosporine-GL] | – | – | 1 | – |
